For the assay, the target named is D(2) dopamine receptor (Homo sapiens, UniProt P14416). The assay can be described thus: Binding affinity towards cloned human dopamine D2 receptor was determined.

Sequences of proteins named here, by UniProt entry; tags and fusion partners are left off.
UniProt P14416, whole entry: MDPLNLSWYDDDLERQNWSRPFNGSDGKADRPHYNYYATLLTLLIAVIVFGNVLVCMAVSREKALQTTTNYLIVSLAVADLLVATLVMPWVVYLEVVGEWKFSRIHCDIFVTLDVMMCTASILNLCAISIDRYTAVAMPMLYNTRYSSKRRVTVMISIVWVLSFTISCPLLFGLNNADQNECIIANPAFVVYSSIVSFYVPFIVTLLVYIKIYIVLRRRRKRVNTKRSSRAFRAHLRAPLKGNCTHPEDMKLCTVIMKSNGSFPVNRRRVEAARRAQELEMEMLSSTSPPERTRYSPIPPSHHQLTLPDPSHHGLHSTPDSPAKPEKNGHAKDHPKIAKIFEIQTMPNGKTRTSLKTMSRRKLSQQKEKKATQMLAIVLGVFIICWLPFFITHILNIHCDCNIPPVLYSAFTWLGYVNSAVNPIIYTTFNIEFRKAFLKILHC

The text below walks through data of ChEMBL document CHEMBL1136643, “Identification of a novel series of selective 5-HT7 receptor antagonists” (Bioorg Med Chem Lett, 2003).

As to `O=C1c2ccccc2CCCN1CCN1CCC(n2c(=O)[nH]c3cc(F)ccc32)CC1`, affinity was put at a Ki of 0.234 µM.
